Measurements: paper PMC7794245, “Potent DNA gyrase inhibitors bind asymmetrically to their target using symmetrical bifurcated halogen bonds” (Nature Communications, 2021)

Test system: HUVEC
Test: Metabolic activity assessment (CellTiter 96 Aqueous One), HUVEC
Format: cell-based, human
Details: read-out: HUVEC IC50; 72 h treatment, mean ± SD
Experimental: Supplementary Table 7. Results of cytotoxicity studies.
Metabolic activity assessment
Cells of the HepG2 line ( ATCC® HB-8065™) and HUVEC ( ATCC® CRL-1730™) were cultured in Dulbecco’s Modified Eagle Medium (DMEM; Sigma-Aldrich, St. Louis, MO, USA) supplemented with 10% heat -deactivated FBS (Gibco, Grand Island/NY, USA), 2 mM L -glutamine, 100 U/mL penicillin, 100 µg/mL streptomycin (all from Sigma -Aldrich) in a humidified chamber at 37 °C and 5% CO2. The experiments were carried out on passages 7 - 9 for both cell lines. The tested compounds were dissolved in DMSO and further diluted in culture medium to a desired final concentration. […]
For IC 50 determination, cells were seeded into 96 -well plates at 5 × […]
10^4 cells/mL (100 µL/well) and after attachm ent treated with seven different concentration of the selected compounds or corresponding vehicle as control. The metabolic activity was assessed after 72 h treatment using the CellTiter 96 Aqueous One Solution Cell Proliferation Assay (Promega, Madison/WI, USA), in accordance with the manufacturer’s instructions .7 The absorbance was measured at 492 nm on an automated microplate reader BioTek Synergy HT (BioTek Instruments, Inc.). […] IC 50 values were calculated by a non -linear regression model using Graph Pad Prism 7 software. […]

SMILES: COc1ccc2nccc(CCN3CCC(NCc4ccc(CO)cc4)CC3)c2n1
- IC50: > 50 µM
